Experimental data reported in article PMC11308778.
“And” between values parts separate entries of the source, which are not always exact repeats. Identical values can stand only once.

Experiments:
[1] = biological target: MYCWBMtFhuA nanopore sensor (peptide adaptor O - MYCWBM peptide ligand - Gly/Ser tether - tFhuA) (not stated | Escherichia coli); test: single-channel electrical recording (nanopore sensor, resistive-pulse technique); MYCWBMtFhuA in a planar lipid bilayer, 11.4 µM WDR5 added to the cis side; 300 mM KCl, 20 mM Tris-HCl, 1 mM TCEP, pH 7.5; applied transmembrane potential -10 mV
[2] = biological target: MYCWBMtFhuA nanopore sensor (peptide adaptor O - MYCWBM peptide ligand - Gly/Ser tether - tFhuA) (not stated | Escherichia coli); test: single-channel electrical recording (nanopore sensor, resistive-pulse technique); MYCWBMtFhuA reconstituted into a planar lipid bilayer, WDR5 added to the cis side; 300 mM KCl, 20 mM Tris-HCl, 1 mM TCEP, pH 7.5, 23 ± 1 °C; applied transmembrane potential -20 mV
[3] = biological target: MYCWBMtFhuA nanopore sensor (peptide adaptor O - MYCWBM peptide ligand - Gly/Ser tether - tFhuA) (not stated | Escherichia coli); test: as above; remark: listed apart in the source
[4] = biological target: MYCWBMtFhuA nanopore sensor (peptide adaptor O - MYCWBM peptide ligand - Gly/Ser tether - tFhuA) (not stated | Escherichia coli); test: single-channel electrical recording (nanopore sensor, resistive-pulse technique); MYCWBMtFhuA in a planar lipid bilayer, WDR5 added to the cis side; 50 mM KCl, 20 mM Tris-HCl, 1 mM TCEP, pH 7.5; -20 mV
[5] = biological target: MYCWBMtFhuA nanopore sensor (peptide adaptor O - MYCWBM peptide ligand - Gly/Ser tether - tFhuA) (not stated | Escherichia coli); test: single-channel electrical recording (nanopore sensor, resistive-pulse technique); MYCWBMtFhuA in a planar lipid bilayer, 11.4 µM WDR5 added to the cis side; 300 mM KCl, 20 mM Tris-HCl, 1 mM TCEP, pH 7.5; applied transmembrane potential +40 mV
[6] = biological target: MYCWBMtFhuA nanopore sensor (peptide adaptor O - MYCWBM peptide ligand - Gly/Ser tether - tFhuA) (not stated | Escherichia coli); test: single-channel electrical recording (nanopore sensor, resistive-pulse technique); MYCWBMtFhuA in a planar lipid bilayer, WDR5 added to the cis side; 400 mM KCl, 20 mM Tris-HCl, 1 mM TCEP, pH 7.5; -20 mV
[7] = biological target: MYCWBMtFhuA nanopore sensor (peptide adaptor O - MYCWBM peptide ligand - Gly/Ser tether - tFhuA) (not stated | Escherichia coli); test: single-channel electrical recording (nanopore sensor, resistive-pulse technique); MYCWBMtFhuA in a planar lipid bilayer, 11.4 µM WDR5 added to the cis side; 300 mM KCl, 20 mM Tris-HCl, 1 mM TCEP, pH 7.5; applied transmembrane potential -40 mV
[8] = biological target: MYCWBMtFhuA nanopore sensor (peptide adaptor O - MYCWBM peptide ligand - Gly/Ser tether - tFhuA) (not stated | Escherichia coli); test: single-channel electrical recording (nanopore sensor, resistive-pulse technique); MYCWBMtFhuA in a planar lipid bilayer, 11.4 µM WDR5 added to the cis side; 300 mM KCl, 20 mM Tris-HCl, 1 mM TCEP, pH 7.5; applied transmembrane potential +20 mV
[9] = biological target: MYCWBMtFhuA nanopore sensor (peptide adaptor O - MYCWBM peptide ligand - Gly/Ser tether - tFhuA) (not stated | Escherichia coli); test: single-channel electrical recording (nanopore sensor, resistive-pulse technique); MYCWBMtFhuA in a planar lipid bilayer, 11.4 µM WDR5 added to the cis side; 300 mM KCl, 20 mM Tris-HCl, 1 mM TCEP, pH 7.5; applied transmembrane potential +10 mV
[10] = biological target: MYCWBMtFhuA nanopore sensor (peptide adaptor O - MYCWBM peptide ligand - Gly/Ser tether - tFhuA) (not stated | Escherichia coli); test: single-channel electrical recording (nanopore sensor, resistive-pulse technique); MYCWBMtFhuA in a planar lipid bilayer, WDR5 added to the cis side; 200 mM KCl, 20 mM Tris-HCl, 1 mM TCEP, pH 7.5; -20 mV
[11] = biological target: MYCWBMtFhuA nanopore sensor (peptide adaptor O - MYCWBM peptide ligand - Gly/Ser tether - tFhuA) (not stated | Escherichia coli); test: single-channel electrical recording (nanopore sensor, resistive-pulse technique); MYCWBMtFhuA in a planar lipid bilayer, WDR5 added to the cis side; 100 mM KCl, 20 mM Tris-HCl, 1 mM TCEP, pH 7.5; -20 mV
[12] = biological target: MYCWBMtFhuA nanopore sensor (peptide adaptor O - MYCWBM peptide ligand - Gly/Ser tether - tFhuA) (not stated | Escherichia coli); test: single-channel electrical recording (nanopore sensor, resistive-pulse technique); MYCWBMtFhuA reconstituted into a planar lipid bilayer, WDR5 added to the cis side; 300 mM KCl, 20 mM Tris-HCl, 1 mM TCEP, pH 7.5, 23 ± 1 °C; applied transmembrane potential -20 mV; remark: listed apart in the source
[13] = biological target: MYCWBMtFhuA nanopore sensor (human | Escherichia coli); test: single-channel electrical recording (resistive-pulse, nanopore sensor); as a1 but 400 mM KCl, 20 mM Tris-HCl, 1 mM TCEP, pH 7.5, -20 mV; 11.4 uM WDR5 for the histograms
[14] = biological target: MYCWBMtFhuA nanopore sensor (human | Escherichia coli); test: single-channel electrical recording (resistive-pulse, nanopore sensor); series of applied voltages from +40 to -40 mV; 300 mM KCl, 20 mM Tris-HCl, 1 mM TCEP, pH 7.5, 11.4 uM WDR5 on the cis side; ln(kon) extrapolated to 0 mV
[15] = biological target: MYCWBMtFhuA nanopore sensor (human | Escherichia coli); test: single-channel electrical recording (resistive-pulse, nanopore sensor); as a1 but 50 mM KCl, 20 mM Tris-HCl, 1 mM TCEP, pH 7.5, -20 mV; 11.4 uM WDR5 for the histograms
[16] = biological target: MYCWBMtFhuA nanopore sensor (human | Escherichia coli); test: single-channel electrical recording (resistive-pulse, nanopore sensor); series of KCl concentrations from 50 to 400 mM, -20 mV, pH 7.5; kon against [KCl] with extrapolation to zero and to infinite [KCl]
[17] = biological target: MLL4WintFhuA nanopore sensor (human | Escherichia coli); test: single-channel electrical recording (resistive-pulse, nanopore sensor); single nanopore reconstituted into a planar lipid bilayer, WDR5 added to the cis side; 300 mM KCl, 20 mM Tris-HCl, 1 mM TCEP, pH 7.5, -20 mV, 23 °C; KD = koff/kon
[18] = biological target: MYCWBMtFhuA nanopore sensor (human | Escherichia coli); test: as above

Which koff [1] does the source give for “WD repeat-containing protein 5 (WDR5), N-terminal truncation WDR5 23-334 (from UniProt P61964 23-334) (domain or fragment)” here?
Its koff is 27 s⁻¹.

What about the kon [1] of the same substance?
The kon was 60000 M⁻¹ s⁻¹.

What about the Kd [2] of the same substance?
The Kd was 192 µM and 197 µM and 203 µM.

What about the koff [2] of the same substance?
Its koff is 26 s⁻¹.

What about the kon [2] of the same substance?
Its kon is 150000 M⁻¹ s⁻¹ and 160000 M⁻¹ s⁻¹.

What about the koff [3] of the same substance?
The koff was 27 s⁻¹ and 25 s⁻¹ and 28 s⁻¹.

And the Kd [4]?
Its Kd is 24 µM and 26 µM.

And the koff [4]?
Its koff is 7 s⁻¹ and 7.1 s⁻¹ and 6.6 s⁻¹.

And the koff [5]?
Its koff is 34 s⁻¹.

What about the kon [5] of the same substance?
The kon was 8000 M⁻¹ s⁻¹.

And the Kd [6]?
The Kd was 291 µM and 272 µM and 293 µM.

And the koff [6]?
Its koff is 30 s⁻¹ and 31 s⁻¹.

What about the kon [6] of the same substance?
Its kon is 100000 M⁻¹ s⁻¹ and 110000 M⁻¹ s⁻¹.

What about the koff [7] of the same substance?
Its koff is 23 s⁻¹.

What about the kon [7] of the same substance?
Its kon is 310000 M⁻¹ s⁻¹.

What about the koff [8] of the same substance?
Its koff is 32 s⁻¹.

And the kon [8]?
Its kon is 20000 M⁻¹ s⁻¹.

What about the koff [9] of the same substance?
Its koff is 30 s⁻¹.

What about the kon [9] of the same substance?
Its kon is 30000 M⁻¹ s⁻¹.

What about the Kd [10] of the same substance?
The Kd was 122 µM and 115 µM.

And the koff [10]?
The koff was 21 s⁻¹ and 19 s⁻¹ and 20 s⁻¹.

What about the kon [10] of the same substance?
Its kon is 170000 M⁻¹ s⁻¹ and 160000 M⁻¹ s⁻¹ and 180000 M⁻¹ s⁻¹.

And the Kd [11]?
The Kd was 58 µM and 52 µM and 51 µM.

What about the koff [11] of the same substance?
The koff was 12 s⁻¹ and 11 s⁻¹.

And the kon [11]?
Its kon is 220000 M⁻¹ s⁻¹ and 210000 M⁻¹ s⁻¹.

What about the kon [12] of the same substance?
The kon was 130000 M⁻¹ s⁻¹ and 140000 M⁻¹ s⁻¹.

Which results are given for “WD repeat-containing protein 5, N-terminal truncation (WDR5^23–334) (from UniProt P61964 23-334) (domain or fragment)”?
Kd [13]: 290 µM; bound duration tau-off at 11.4 uM WDR5 [13]: 33 ms; unbound duration tau-on at 11.4 uM WDR5 [13]: 844 ms; kon at 0 mV [14]: 48000 M⁻¹ s⁻¹; Kd [15]: 25 µM; bound duration tau-off at 11.4 uM WDR5 [15]: 153 ms; unbound duration tau-on at 11.4 uM WDR5 [15]: 347 ms; basal kon at infinite [KCl] [16]: < 100000 M⁻¹ s⁻¹; electrolyte-free kon (intercept of kon against [KCl]) [16]: 290000 M⁻¹ s⁻¹; fold increase of kon at 50 mM KCl against 400 mM KCl [16]: 3 fold; kon-1 (short-lived events) [17]: 140000 M⁻¹ s⁻¹; Kd [18]: 200 µM; bound duration [18]: 38 ms; bound duration tau-off at 4 uM WDR5 [18]: 40 ms; bound duration tau-off at 7.8 uM WDR5 [18]: 37 ms; bound duration tau-off at 18.1 uM WDR5 [18]: 39 ms; koff [18]: 26 s⁻¹; kon [18]: 140000 M⁻¹ s⁻¹; unbound duration tau-on at 4 uM WDR5 [18]: 1560 ms; unbound duration tau-on at 7.8 uM WDR5 [18]: 879 ms; unbound duration tau-on at 18.1 uM WDR5 [18]: 419 ms
